Results taken from article PMC12457681.

Molecular target: PLCG1 D1165H-sfGFP (UniProt P19174)

- PLCG1 phosphorylation (immunoblot) in Hut78 cells expressing PLCG1 D1165H after 0.15 μM jasplakinolide for 0.5 h (actin filaments stabilized), fold increase: 1.4 fold
- PLCG1 phosphorylation (immunoblot) in Hut78 cells expressing PLCG1 D1165H after 0.5 μM latrunculin A for 0.5 h (actin filaments destabilized), fold decrease: 1.4 fold
Substance: alpha smooth muscle actin (endogenous in Hut78) (from UniProt P62736 1-377) (natural protein)
